Source: US20030008329A1 (Takeda / Millennium, published 2003)
Values belong to the binder of their own block, whether it stands above or below them.

By UniProt entry, the sequences of proteins in these tests, tags left out. Where a name states a change or a piece, a line headed by the entry shows the natural chain unless it says otherwise.
UniProt P07480: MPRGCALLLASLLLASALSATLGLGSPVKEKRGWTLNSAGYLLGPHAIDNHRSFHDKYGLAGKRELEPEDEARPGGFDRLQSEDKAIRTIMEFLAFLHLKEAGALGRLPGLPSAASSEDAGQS
UniProt P10683: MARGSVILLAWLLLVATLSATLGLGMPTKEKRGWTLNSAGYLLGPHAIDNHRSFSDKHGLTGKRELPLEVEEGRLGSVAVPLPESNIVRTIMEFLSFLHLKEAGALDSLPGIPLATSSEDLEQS

Experiments:
[1] = target: T1, mouse-derived galanin receptor protein (mouse pancreatic β-cell line MIN6-derived, encoded by pMGR20) (mouse, UniProt P56479 1-348); assay: competition with 100 pM porcine [125I] galanin on membranes of CHO cells expressing the mouse galanin receptor, 25 C 75 min
T1 construct: also called mouse galanin receptor; MIN6-derived galanin receptor protein
T1 sequence: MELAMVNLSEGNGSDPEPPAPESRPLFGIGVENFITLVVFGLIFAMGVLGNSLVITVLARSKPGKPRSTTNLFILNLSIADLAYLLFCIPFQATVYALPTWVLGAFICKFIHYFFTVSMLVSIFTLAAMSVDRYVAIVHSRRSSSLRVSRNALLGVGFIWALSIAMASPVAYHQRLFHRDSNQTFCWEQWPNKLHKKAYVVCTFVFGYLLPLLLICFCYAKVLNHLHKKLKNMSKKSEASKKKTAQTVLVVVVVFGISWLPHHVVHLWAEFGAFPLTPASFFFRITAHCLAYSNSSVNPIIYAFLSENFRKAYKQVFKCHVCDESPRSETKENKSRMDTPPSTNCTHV

[2] = target: T1, mouse-derived galanin receptor protein …; assay: competition with porcine [125I] galanin on membranes of CHO cells expressing the mouse galanin receptor
[3] = target: T1, mouse-derived galanin receptor protein …; assay: competition with [125I] porcine galanin on MIN6 cell membrane fractions, 25 C 75 min, filtration

IC50 [1]: 250 pM
B1: porcine galanin (unlabeled) (peptide, UniProt P07480 33-61, looked up)
peptide: GWTLNSAGYLLGPHAIDNHRSFHDKYGLA
notes: mature; The assay used the 29-residue peptide; also called standard porcine galanin; galanin (porcine)

Ki [2]: 69 pM
IC50 [3]: 130 pM
IC50 [1]: 250 pM
B2: rat galanin (peptide, UniProt P10683 33-61, looked up)
peptide: GWTLNSAGYLLGPHAIDNHRSFSDKHGLT
notes: mature; The assay used the galanin peptide; also called rat-type galanin
